Target: HsPGM (Homo sapiens, UniProt P36871)
Assay: G6PDH coupled assay for PGM, HsPGM
Assay type: biochemical
Settings: read-out: IC50 HsPGM; HsPGM 5 nM, no preincubation; > values: highest concentration at which the compound can solubilize

Sequences of proteins named here, by UniProt entry; tags and fusion partners are left off.
UniProt P36871, whole entry: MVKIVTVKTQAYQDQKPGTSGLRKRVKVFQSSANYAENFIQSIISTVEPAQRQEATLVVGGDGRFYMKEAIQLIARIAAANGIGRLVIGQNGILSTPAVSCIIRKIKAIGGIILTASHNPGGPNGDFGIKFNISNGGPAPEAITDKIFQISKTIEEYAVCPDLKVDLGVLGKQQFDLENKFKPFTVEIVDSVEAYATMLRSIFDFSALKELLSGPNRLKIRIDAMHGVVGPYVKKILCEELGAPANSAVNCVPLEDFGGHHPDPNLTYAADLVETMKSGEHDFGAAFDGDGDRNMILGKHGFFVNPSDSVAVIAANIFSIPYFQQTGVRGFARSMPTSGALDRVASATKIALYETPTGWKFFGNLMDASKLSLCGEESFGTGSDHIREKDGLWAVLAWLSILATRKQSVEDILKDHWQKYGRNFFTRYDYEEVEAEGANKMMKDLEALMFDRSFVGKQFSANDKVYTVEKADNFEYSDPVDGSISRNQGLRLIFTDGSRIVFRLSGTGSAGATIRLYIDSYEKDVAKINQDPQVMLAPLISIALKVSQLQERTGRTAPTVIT

SMILES	IC50 [µM]
O=c1ccsn1-c1ccc(F)c(Cl)c1	> 100
CCOC(=O)c1ccc(-n2sccc2=O)cc1	> 100
O=c1ccsn1-c1cccc(C(F)(F)F)c1	> 100
COC(=O)c1ccc(-n2sccc2=O)cc1	> 100
O=c1ccsn1-c1ccccc1	> 400
